Measurements published in patent publication US5512549A, “Glucagon-like insulinotropic peptide analogs, compositions, and methods of use” (Eli Lilly and Company, priority 1994, dated 1996).

Target: T1, rat GLP-1 receptor (Rattus norvegicus, UniProt P32301)
T1 construct: expressed in transfected cells; host or cells: CHO DXB-11 (Chinese hamster ovary) cells, used as a membrane preparation
T1 sequence (P32301 22-463): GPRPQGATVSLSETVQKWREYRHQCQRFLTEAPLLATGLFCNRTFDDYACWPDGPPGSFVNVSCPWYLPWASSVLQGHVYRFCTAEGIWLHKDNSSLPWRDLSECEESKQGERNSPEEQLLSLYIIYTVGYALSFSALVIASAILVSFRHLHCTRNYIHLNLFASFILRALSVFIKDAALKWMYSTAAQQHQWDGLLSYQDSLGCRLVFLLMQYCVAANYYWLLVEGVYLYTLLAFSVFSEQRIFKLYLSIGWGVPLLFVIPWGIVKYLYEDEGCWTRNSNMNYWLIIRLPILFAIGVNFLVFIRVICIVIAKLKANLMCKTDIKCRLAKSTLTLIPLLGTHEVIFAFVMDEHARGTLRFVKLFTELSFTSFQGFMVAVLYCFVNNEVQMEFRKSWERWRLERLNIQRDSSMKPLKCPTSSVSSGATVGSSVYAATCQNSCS
Experiment: cAMP Assay (in vitro receptor binding assay) on membrane preparation
Type: biochemical
Details: cAMP production, CHO membranes expressing rat GLP-1 receptor; mean ± spread

- % Relative Potency: 100.0 ± 18%
Substance: GLP-1(7-37)OH
